Reference: patent publication US11083717B2, “Compositions and methods for drug sensitization of parasites” (The Texas A&M University System, priority 2015, dated 2021)

Assays:
human fibroblast = tested on: human fibroblast
Source text: (§1) These tests included an IL-12 mouse model test to determine compound efficacy, verification of MIC50 for CP, cytotoxicity test for fibroblasts and yeast to determine potential toxic effects, a Human ether-a-go-go-related gene (hERG) test to determine potential cardiotoxicity, an AMES test tp determine mutagenic potential, a Safety Screen 44 test to determine common negative off-target drug interastion (Eurofins Cerep, SA, France), a cytochrome P450 (CYP) test to determine potential liver toxicity, a maximum tolerated dose, test, a Pharmacokinetics (PK) test to determine fate of the substance administered to a living organism tests for plasma stability in human and mouse, to measure the degradation of compound in plasma MClint and HClint test to determine in vitro intrinsic clearance for Mouse and Human, and kinetic solubility and plasma protein binding tests in mouse and human.

S. cerevisiae = settings: Saccharomyces cerevisiae
Source text: as §1

[1] = tested on: Cryptosporidium parvum (CP); assay: Cell culture model of Cryptosporidium parvum infection in HCT-8 cells, real-time qRT-PCR; assay type: cell-based
Protocol: Fresh oocysts of CP (Iowa strain) were purchased from Bunch Grass Farm (Deary, Id.). Oocysts were further purified by a Percoll-based gradient centrifugation method and surface sterilized with 10% bleach for 7 min on ice, followed by washes with phosphate-buffered saline (PBS). An ileocecal colorectal adenocarcinoma cell line (HCT-8, ATCC #CCL-244) was used to host the growth of CP in vitro. One day before the inoculation, HCT-8 cells were seeded in 96-well plates (2.5×10^4/well) containing RPMI 1640 medium supplied with 10% fetal bovine serum (200 μL medium/well in all experiments) and allowed to grow overnight at 37° C. under 5% CO2 atmosphere until they reached ˜90% confluence. For drug testing, host cells were infected with 1.5×10^4 oocysts per well (ratio ˜1:3). After inoculation, parasite oocysts were allowed to undergo excystation and invasion into host cells for 3 h at 37° C. Free parasites and oocyst walls in the medium were removed from the plates by an exchange of the culture medium. […]
The levels of 18S rRNA transcripts from CP and host cells (referred to as Cp18S and Hs18S) were detected by real-time qRT-PCR method using qScrip™ one-step SYBR green qRT-PCR kit (Quanta Biosciences, Gaithersburg, Md.). […]
The % inhibition (% inh @ (μM)) was calculated using a standard curve. […]

O=C1NCCN1c1ccc(Oc2nc3ccc(Cl)cc3s2)cc1 [NZ-341, 1-{4-[(6-chloro-1,3-benzothiazol-2-yl)oxy]phenyl}imidazolidin-2-one]
concentrations at which not toxic, human fibroblast cytotoxicity testing (human fibroblast): ≥ 100 µM

COC(=O)C(C)c1ccc(Oc2nc3ccc(Cl)cc3s2)cc1 (centres unmarked) [NZ-311, methyl 2-{4-[(6-chloro-1,3-benzothiazol-2-yl)oxy]phenyl}propanoate]
concentrations at which not toxic, S. cerevisiae cytotoxicity testing (S. cerevisiae): ≥ 100 µM
concentrations at which not toxic, human fibroblast cytotoxicity testing (human fibroblast; human): ≥ 100 µM

CONC(=O)[C@@H](C)Oc1ccc(Oc2nc3ccc(Cl)cc3o2)cc1 [NZ-296, (2R)-2-{4-[(6-chloro-1,3-benzoxazol-2-yl)oxy]phenoxy}-N-methoxypropanamide]
concentrations at which not toxic, S. cerevisiae cytotoxicity testing (S. cerevisiae): ≥ 100 µM
concentrations at which not toxic, human fibroblast cytotoxicity testing (human fibroblast; human): ≥ 100 µM

CNC(=O)Nc1ccc(Oc2cnc3cc(Cl)ccc3n2)cc1 [NZ-342, 1-{4-[(6-chloroquinoxalin-2-yl)oxy]phenyl}-3-methylurea]
concentrations at which not toxic, human fibroblast cytotoxicity testing (human fibroblast; human): ≥ 100 µM

CC(C)NC(=O)Nc1ccc(Oc2cnc3cc(Cl)ccc3n2)cc1 [NZ-322, 1-{4-[(6-chloroquinoxalin-2-yl)oxy]phenyl}-3-(propan-2-yl)urea]
concentrations at which not toxic, S. cerevisiae cytotoxicity testing (S. cerevisiae): ≥ 100 µM
concentrations at which not toxic, human fibroblast cytotoxicity testing (human fibroblast; human): ≥ 100 µM
inhibition at 0.9 µM ([1]; HCT-8, @0.9 uM): 44%

CC(C)NC(=O)Nc1ccc(Oc2nc3ccc([N+](=O)[O-])cc3s2)cc1 [NZ-363, 1-{4-[(6-nitro-1,3-benzothiazol-2-yl)oxy]phenyl}-3-(propan-2-yl)urea]
concentrations at which not toxic, S. cerevisiae cytotoxicity testing (S. cerevisiae): ≥ 100 µM
concentrations at which not toxic, human fibroblast cytotoxicity testing (human fibroblast): ≥ 100 µM

CONC(=O)[C@@H](C)Oc1ccc(Oc2nc3ccc(F)cc3s2)cc1 [NZ-289, (2R)-2-{4-[(6-fluoro-1,3-benzothiazol-2-yl)oxy]phenoxy}-N-methoxypropanamide]
concentrations at which not toxic, S. cerevisiae cytotoxicity testing (S. cerevisiae): ≥ 100 µM
concentrations at which not toxic, human fibroblast cytotoxicity testing (human fibroblast): ≥ 100 µM
inhibition at 10 µM ([1]; HCT-8, read-out: % inh @ (μM)): 88%

Like-named read-outs stand apart in the source and are kept apart here.
